Test [1] addresses T1, DYRK1A (Homo sapiens, UniProt Q13627).
T1 construct: Purified recombinant kinase was incubated with serial 3-fold dilutions of test compounds; purchased Reaction Biology Corporation
The experiment in a line: DYRK1A kinase assay, Reaction Biology Corporation HotSpot technology (33P ATP). The note with it: purified recombinant kinase, 10 µM ATP, 120 min, room temperature. The test is classed as biochemical.

Test [2] concerns the target DYRK1B (Homo sapiens, UniProt Q9Y463). The experiment in a line: DYRK1B kinase assay, Reaction Biology Corporation HotSpot technology (33P ATP).

SMILES strings stand for the structures.

In general, IC50 refers to the point on the concentration scale where inhibition reaches its midpoint. For the compound `COC(=N)c1nc2ccc3ncnc(Nc4ccc5nc[nH]c5c4)c3c2s1` [Compound 9g, Methyl 9-(1H-benzo[d]imidazol-6-ylamino)thiazolo[5,4-f]quinazoline-2-carbimidate], the values for the IC50 in test [1] and in test [2] were 4.44 nM and 4.65 nM, respectively.

The record behind these values is publication PMC6271009, “Design and Synthesis of Thiazolo[5,4-f]quinazolines as DYRK1A Inhibitors, Part II” (Molecules, 2014).
